Sequences of proteins named here, by UniProt entry; tags and fusion partners are left off.
UniProt P35372, whole entry: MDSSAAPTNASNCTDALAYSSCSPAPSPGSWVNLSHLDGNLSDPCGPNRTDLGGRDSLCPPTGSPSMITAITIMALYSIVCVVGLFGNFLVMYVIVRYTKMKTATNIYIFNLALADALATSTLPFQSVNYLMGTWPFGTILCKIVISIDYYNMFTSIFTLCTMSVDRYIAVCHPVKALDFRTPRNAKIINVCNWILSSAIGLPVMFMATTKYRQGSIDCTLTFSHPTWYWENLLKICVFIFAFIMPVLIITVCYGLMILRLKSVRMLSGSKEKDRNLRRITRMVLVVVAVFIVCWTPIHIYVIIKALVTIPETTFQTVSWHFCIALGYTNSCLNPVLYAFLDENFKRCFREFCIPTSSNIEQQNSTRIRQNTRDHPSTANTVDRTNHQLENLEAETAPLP

According to patent publication US8404740B2, “Spirocyclic cyclohexane compounds” (dated 2013):

How the values were obtained:
[1] = tested on: mouse; experiment: Analgesia test in the tail-flick test in the mouse
[2] = target: human μ-opiate receptor (Homo sapiens, UniProt P35372); experiment: Measurement of μ binding ([3H]-naloxone, CHO-K1 membrane preparation); settings: test substance 1 μmol/liter

Row | SMILES | Tail-flick mouse i. v. % inhibition [10 μg/kg) [1] | further results
1 | CCCCC1(N(C)C)CCC2(CC1)c1[nH]c3ccccc3c1CCN2C(C)=O (centres unmarked) | 75% | –
2 | CN(C)C1(C2CCCC2)CCC2(CC1)OCCc1c2[nH]c2ccccc12 (centres unmarked) | 90% | –
3 | CCCCC1(N(C)C)CCC2(CC1)OCCc1c2[nH]c2ccc(F)cc12 (single isomer, unassigned) | 60% | –
4 | COCCCC1(N(C)C)CCC2(CC1)NCCc1c2[nH]c2ccccc12 (centres unmarked) | – | μ % inhibition [1 μM] [2]: 26%
5 | CCC1(N(C)C)CCC2(CC1)OCCc1c2[nH]c2ccccc12 (centres unmarked) | – | Tail-flick mouse i. v. % inhibition ([1]; 100 μg/kg): 90% (100 μg/kg)
